This note sets out measurements from patent publication US12084456B2, “Isocarbostyril alkaloids and functionalization thereof” (The Board of Trustees of the University of Illinois, priority 2018, dated 2024).

The nature of the data set: Solubility assay (shake-flask method). The format is physicochemical. To be noted: thermodynamic from solid, water, stirred 24 hours, LCMS, read-out: aq. Solubility. Here is the method: A calibration was made for each compound by diluting a 1 mM DMSO solution to 10, 25, 50, 75, and 100 μM and then measuring their relative UV absorbance by LC-MS using a Kinetex© Evo C-18 50 mm column running a gradient from 5%→90% MeCN in water over 4 minutes at 0.4 mL/min.
The aqueous solubility of each compound was measured using the shake-flask method. 1.0 mg of compound was diluted to 40 mM with water then stirred for 24 hours. Each solution was then filtered, diluted 10-fold, and analyzed by LCMS. The relative UV absorbance of each compound was then compared to its calibration curve to quantify its aqueous solubility.

Molecules are shown by their SMILES. ≈ marks a conversion by molar mass, not a printed value.

`O=C1N[C@@H]2C(=C[C@H](O)[C@@H](O)[C@H]2O)c2cc3c(c(O)c21)OCO3` [compound 4, (+)-narciclasine, reference compound]: the solubility – broadly, how much of the substance goes into solution per volume – at 24 h was determined as 340 ± 20 µg/mL (≈ 1110 µM).
